# Results published in ChEMBL document CHEMBL1124922 (J Med Chem, 1990).
# pIC50: −log10 of the molar value.
# Assays:
# [1] = Evaluated for cytotoxicity under aerobic conditions against AA8 cells using microassay; type: cell-based, Cricetulus griseus; conditions: cho-aa8
# [2] = Evaluated for growth inhibition of UV-4 cells under aerobic or hypoxic conditions (air/N2); conditions: uv4
# [3] = Half-life in culture medium was determined at 37 degrees Celsius in alpha MEM with 10% fetal calf-serum (FCS); conditions: cattle
# [4] = Evaluated for cytotoxicity under aerobic conditions against UV4 cells using microassay
# [5] = Evaluated for inhibitory concentration against UV-4 cells under aerobic conditions with a compound exposure of 1 h
# [6] = Evaluated for inhibitory concentration against UV-4 cells under aerobic conditions with a compound exposure of 18 h
# [7] = Evaluated for growth inhibition of AA8 cells under aerobic conditions; conditions: cho-aa8
# [8] = Evaluated for growth inhibition of AA8 cells under aerobic or hypoxic conditions; conditions: cho-aa8
# [9] = Clonogenicity is evaluated for (CF10) the concentration x time to reduce the surviving fraction to 10% of controls in the clonogenic assay in UV-4 cells under aerobic conditions
# [10] = Evaluated for (CF10) the concentration x time to reduce the surviving fraction to 10% of controls in the stirred suspension assay (SSC) in UV-4 cells under aerobic conditions
# [11] = Ratio = (aerobic IC50 / hypoxic IC50) determined against UV-4 cells with an 18 hr exposure
SMILES,T1/2 [3] [h],pIC50 [5],pIC50 [6],CT10 [10] [µM/h],further results
Nc1ccccc1N(CCCl)CCCl,–,–,–,–,pIC50 [1]: 4.87; pIC50 [2]: 6.22
ClCCN(CCCl)c1ccccc1,2.5,5.92,6.48,–,pIC50 [1]: 4.98; pIC50 [4]: 6.48
O=Nc1ccc(N(CCCl)CCCl)cc1,13.7,> 7.00,7.40,<0.1,pIC50 [7]: 5.70; pIC50 [8]: 6.21; CT10 [9]: 1 µM; Ratio [11]: 0.98
CS(=O)(=O)c1ccc(N(CCCl)CCCl)cc1,> 100,–,4.38,1120,–
CS(=O)(=O)c1cccc(N(CCCl)CCCl)c1,56.6,4.12,5.17,–,–
O=[N+]([O-])c1ccc(N(CCI)CCI)cc1,–,–,–,–,pIC50 [4]: 5.28
COc1ccc(N(CCCl)CCCl)cc1,0.4,6.35,6.39,0.23,–
O=[N+]([O-])c1ccc(N(CCCl)CCCl)cc1,> 100,4.80,4.67,750,pIC50 [1]: < 4.00; pIC50 [7]: < 4.00; pIC50 [8]: 6.00; CT10 [9]: 760 µM; pIC50 [4]: 4.66
COc1cccc(N(CCCl)CCCl)c1,6.3,5.57,6.24,–,–
CN(C)C(=O)c1cccc(N(CCCl)CCCl)c1,5.9,5.12,5.82,–,–
CSc1ccc(N(CCCl)CCCl)cc1,7.2,5.79,7.40,3.1,–
O=[N+]([O-])c1cccc(N(CCCl)CCCl)c1,–,4.02,4.87,–,–
O=[N+]([O-])c1ccc(N(CCBr)CCBr)cc1,–,–,–,–,pIC50 [4]: 5.55
BrCCN(CCBr)c1ccccc1,–,–,–,–,pIC50 [1]: 5.47; pIC50 [4]: 6.85
CN(C)C(=O)c1ccc(N(CCCl)CCCl)cc1,12.6,4.84,5.80,1,–
Cl.Nc1ccc(N(CCCl)CCCl)cc1,0.134,–,–,–,–
Cc1ccc(N(CCCl)CCCl)cc1,1.5,6.40,6.68,2.9,–
ICCN(CCI)c1ccccc1,–,–,–,–,pIC50 [1]: 6.27; pIC50 [4]: 7.70
O=[N+]([O-])c1ccccc1N(CCCl)CCCl,–,–,–,–,pIC50 [1]: 4.68; pIC50 [2]: 6.00
Nc1ccc(N(CCCl)CCCl)cc1,–,7.15,7.08,–,–
Cl.Nc1cccc(N(CCCl)CCCl)c1,1.6,–,–,0.8,CT10 [9]: 0.8 µM; Ratio [11]: 0.98
Nc1cccc(N(CCCl)CCCl)c1,–,6.42,6.80,–,pIC50 [7]: 5.54; pIC50 [8]: 6.05
